According to article PMC5421360 (Peptides, 2017):

Test system: NCI-H727 cells
Assay: MTT proliferation assay, NCI-H727 cells
Type: cell-based, human
Conditions: 2 days

Substance: Trastuzumab: Herceptin; HER2 inhibitor used for patients with overexpressed HER2
- IC50, proliferation: 0.5 µg/mL
